Data: paper PMC2744999

What was measured:
[1] = target: full length carboxy-6 × His tagged STC1 (STC1-HT), human Stanniocalcin-1 (human) (UniProt P52823); test: dynamic light scattering; recombinant STC1 sample inspected before SAXS for monodispersity
[2] = target: full length carboxy-6 × His tagged STC1 (STC1-HT), human Stanniocalcin-1 (human) (UniProt P52823); test: SEC; data not shown
[3] = target: full length carboxy-6 × His tagged STC1 (STC1-HT), human Stanniocalcin-1 (human) (UniProt P52823); test: SAXS; 4°C, 60 mM MES 200 mM NaCl pH 6.5, 0.15 and 0.18 mg/mL; molecular mass from I(0) with BSA as standard

stoichiometry N [1]: 2
stoichiometry N [2]: 2
stoichiometry N [3]: 2
Substance: full length carboxy-6 × His tagged STC1 (STC1-HT), human Stanniocalcin-1 (from UniProt P52823-1 34-247) (natural protein)
